Assay results taken from patent US20100286082A1, “RIBOSWITCHES AND METHODS AND COMPOSITIONS FOR USE OF AND WITH RIBOSWITCHES” (Yale University, priority 2007, published 2010).

System: 17-90 RNA mutant U41
Assay: In-line probing of mutant (U41) 17-90 RNA
Type: binding, Streptococcus pneumoniae R6
Conditions: compared with wild type

Nc1nc2nc[nH]c2c(=O)[nH]1 [guanine]
binding by the U41 mutant: no longer detectable
